Experimental data as given in BindingDB's records for 24583353.

The chains behind the UniProt entries cited, without tags or fusion partners.
UniProt P80366, whole entry, looked up: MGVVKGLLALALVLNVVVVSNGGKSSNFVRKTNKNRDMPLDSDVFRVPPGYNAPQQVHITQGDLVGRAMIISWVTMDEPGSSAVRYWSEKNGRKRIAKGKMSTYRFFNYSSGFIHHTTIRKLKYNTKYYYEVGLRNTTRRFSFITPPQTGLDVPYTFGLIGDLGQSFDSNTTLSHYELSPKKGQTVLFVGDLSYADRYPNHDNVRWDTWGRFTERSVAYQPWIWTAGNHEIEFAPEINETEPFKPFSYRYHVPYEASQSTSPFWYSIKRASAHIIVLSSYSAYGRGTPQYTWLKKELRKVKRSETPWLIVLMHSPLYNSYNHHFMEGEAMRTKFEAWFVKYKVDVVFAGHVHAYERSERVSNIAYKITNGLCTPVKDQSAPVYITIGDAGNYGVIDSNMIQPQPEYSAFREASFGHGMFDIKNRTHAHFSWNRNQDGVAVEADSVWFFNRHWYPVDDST

Target: Fe(3+)-Zn(2+) purple acid phosphatase (Phaseolus vulgaris, UniProt P80366)

CCP(=O)(O)O
Ki: 7.6 mM
